± gives the expanded uncertainty stated by the source.
Details: 298.15 K; 101.33 kPa; Liquid; Pycnometric method

Compound `CCCCOCCCC` [dibutyl ether] has a mass density of 764.23 ± 0.69 kg/m3.

Reference: the NIST ThermoML archive (doi:10.1021/je800446c)
